Data from patent US20030228583A1, “Biomarkers of liver response” (priority 2001, published 2003).

What was measured:
[1] = test system: Liver Response-Associated Features (LRFs) in liver tissue; test: Proteome analysis (2D electrophoresis, Reference Protocol) of liver tissue of drug-treated vs control animals: relative abundance of LRFs
[2] = test system: Liver Response-Associated Features (LRFs) in serum/plasma (blood); test: Proteome analysis (2D electrophoresis, Reference Protocol) of depleted serum/plasma of drug-treated vs control animals: relative abundance of LRFs
Male Sprague-Dawley rats = test: ANIT rat toxicity study (clinical observations, body weight, clinical laboratory measurements, organ weights, histopathology); details: final necropsy, 120 hours post dose; due to decreased terminal body weights

S=C=Nc1cccc2ccccc12 [ANIT, Alpha-naphthylisothiocyanate]
Fold Change LRF-399 ([1]; Early, Middle, P 0.0367): 1.82 fold
Fold Change LRF-111 ([1]; Late, P 0.0200): 1.41 fold
Fold Change LRF-410 ([1]; Middle, Late, P 0.0345): 1.31 fold
Fold Change LRF-64 ([1]; Middle, P 0.0075): 5.37 fold
Fold Change LRF-72 ([1]; Middle, P 0.0117): 1.90 fold
Fold Change LRF-161 ([2]; Early, P 0.0075): −4.38 fold
Fold Change LRF-169 ([2]; Early, P 0.0075): −8.33 fold
Fold Change LRF-181 ([2]; Early, P 0.0075): −6.05 fold
Fold Change LRF-160 ([2]; Early, P 0.0097): −2.62 fold
Fold Change LRF-367 ([2]; Late, P 0.0073): 6.89 fold
Fold Change LRF-305 ([2]; Middle, P 0.0073): 6.03 fold
Fold Change LRF-298 ([2]; Middle, P 0.0075): 6.40 fold
Relative liver weight (Male Sprague-Dawley rats): remained increased
